Experimental data published in US20250387388A1, “COMPOUND AS TRK INHIBITOR AND/OR RET INHIBITOR AND USE THEREOF” (Medinno Pharmaceutical Technology (Zhuhai) Co., Ltd., priority 2022, published 2025).
Where two headings read alike, the source gives them in different places.

Tested on: chronic obstructive pulmonary disease model in rats

CCc1cc(O)c(F)cc1-c1ccc2c(-c3nc4c([nH]3)CN(C(=O)C3CC3)C4)n[nH]c2c1 [MDI-1233, cyclopropyl (2-(6-(2-ethyl-5-fluoro-4-hydroxyphenyl)-1H-indazol-3-yl)pyrrolo[3,4-d]imidazol-5(1H,4H,6H)-yl)ketone]
Therapeutic effect on the COPD model in rats (MDI-1233 1, 3, 10 mg/kg): dose-dependent therapeutic effect | IL-1β in serum and alveolar lavage fluid (ELISA) (MDI-1233 1, 3, 10 mg/kg nasal drops twice a day, 30 days, positive control 0.1 mg/kg/d): could also down-regulate its expression | Lung tissue morphology and inflammatory cell infiltration (HE staining) (MDI-1233 1, 3, 10 mg/kg nasal drops twice a day, 30 days, positive control 0.1 mg/kg/d, vs. COPD model group): reduced compared to the COPD model group | Lung tissue morphology and inflammatory cell infiltration (HE staining) (high-dose MDI-1233 (10 mg/kg) nasal drops twice a day, 30 days): showed the best effects
